# scFv variants of Ab-14 (heavy chain) against a SARS-CoV-2 spike peptide

Data: MIT Lincoln Laboratory AlphaSeq set, Engelhart et al. 2022, doi:10.1038/s41597-022-01779-4, as distributed in FLAb.

Binding partner: SARS-CoV-2 spike HR2 peptide, sequence PDVDLGDISGINAS.

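The starting antibody came from a phage panning campaign against this peptide. Library AAYL49 holds single substitutions and randomly drawn double and triple substitutions in the CDRs. AlphaSeq pools MATa yeast showing the antibodies with MATalpha yeast showing the peptide. Pairs that bind mate more often; barcode pairs of the diploids are counted by sequencing. A regression on co-assayed BCL2-family reference pairs converts the normalised counts of each replicate to an apparent Kd. Mating was done three times.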

Ab-14 is the parent antibody, in scFv form: VH, then a 15-residue (Gly4Ser)3 linker, then VL. The light chain is unchanged in all variants.
VH: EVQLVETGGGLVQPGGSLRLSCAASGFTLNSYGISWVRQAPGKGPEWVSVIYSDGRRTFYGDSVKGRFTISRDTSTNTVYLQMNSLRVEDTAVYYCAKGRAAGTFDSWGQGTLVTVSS
VL: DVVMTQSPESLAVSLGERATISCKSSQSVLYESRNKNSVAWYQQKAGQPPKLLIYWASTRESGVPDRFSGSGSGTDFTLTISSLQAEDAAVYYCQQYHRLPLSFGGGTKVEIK

Substitutions are numbered in sequence along the VH above, starting at 1 (not Kabat).
This list gathers variants with a substitution at R100 (VH, numbered from residue 1).
Kd is apparent (estimated from mating counts) and averaged on the log scale over replicates with a signal. Smaller is tighter.
A pair that was not seen in any replicate is written "nd"; this usually means weak binding, but a binder can also be missed.
As a blank, each scFv also met three strains without target: over library AAYL49, 15% of these pairings were detected, typically at 11 µM and seldom below 680 nM. The control count says in how many pairings with the empty strains this scFv gave a signal.

With S53L+R100N+G103D the result was nd (0 of 3 replicates; controls 3 of 9).
With R57T+R100Q+D106F the result was nd (0 of 3 replicates; controls 2 of 9).
With T28C+S63E+R100P the result was nd (0 of 3 replicates; controls 1 of 9).
With R57A+G99S+R100Q the result was 13 µM (2 of 3 replicates; controls 0 of 9).
With T58K+K65Y+R100G the result was 150 nM (3 of 3 replicates; controls 0 of 9).
With S35L+R100G+S107N the result was 4.2 µM (2 of 3 replicates; controls 3 of 9).
With Y52C+R100I the result was 2.0 µM (1 of 3 replicates; controls 1 of 9).
With K65H+G99I+R100H the result was 6.6 µM (1 of 3 replicates; controls 0 of 9).
With I34M+Y60W+R100N the result was nd (0 of 3 replicates; controls 0 of 9).
With T28W+D54G+R100L the result was nd (0 of 3 replicates; controls 0 of 9).
With D54A+R56I+R100E the result was nd (0 of 3 replicates; controls 2 of 9).
With S31P+R100T+A101W the result was 8.0 µM (2 of 3 replicates; controls 6 of 9).
With F27N+R100H+F105Y the result was 72 nM (3 of 3 replicates; controls 3 of 9).
With G26T+R100Y+A102K the result was nd (0 of 3 replicates; controls 0 of 9).
With F27C+I34G+R100G the result was nd (0 of 3 replicates; controls 0 of 9).
With F27S+Y32P+R100M the result was nd (0 of 3 replicates; controls 0 of 9).
With I34G+R100N+G103C the result was nd (0 of 3 replicates; controls 0 of 9).
With S31V+R100W the result was 13 nM (2 of 3 replicates; controls 0 of 9).
With T28M+D62H+R100Q the result was 28 nM (3 of 3 replicates; controls 0 of 9).
With V50G+R100D the result was nd (0 of 3 replicates; controls 0 of 9).
With Y32L+S35Y+R100K the result was 480 nM (1 of 3 replicates; controls 3 of 9).

Again, the first 2 entries without any signal:

{"changes": "S53L+R100N+G103D", "apparent Kd": "nd", "seen in": "0 of 3", "control signals": "3 of 9"}
{"changes": "R57T+R100Q+D106F", "apparent Kd": "nd", "seen in": "0 of 3", "control signals": "2 of 9"}

In this assay the parent's reference entry averaged 4.4 nM; its copy inside this library read 13 µM (one replicate of three).